From patent publication US20160271155A1, “Vitamin Formulations” (NESTEC S.A., priority 2013, published 2016)

Settings: for Solubility: HPLC-UV
[1] = Methanol/Ethanol/Acetone, concentration prepared 5.31 mg/mL
[2] = Oil/Petroleum ether, concentration prepared 8.09 mg/mL
[3] = Water, concentration prepared 1.06 mg/mL (free acid), 56.53 mg/mL (Na2 salt)

Solubility (appearance) [1]	Solubility [1]	Solubility (appearance) [2]	Solubility [2]	Substance	Solubility (appearance) [3]	Solubility [3]
Suspension	<0.0016 mg/mL;	Suspension	<0.0016 mg/mL;	5-methylfolate [L-5-MTHF Free acid]	Suspension	<0.0016 mg/mL;
–	–	–	–	5-methylfolate [L-5-MTHF Na2 Salt]	Completely	>56.53 mg/mL

Read-outs that look alike come from different tables or passages of the source.
